Reference: PubChem BioAssay AID1987 (The Scripps Research Institute Molecular Screening Center, 2009)
The list shows a part of the results, in another mix than the full data. Active and inactive are the calls of the source.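 The calls were made as follows: active = inhibition above the campaign's mean inhibition across all tested compounds plus 3 SD (cut at about 9.5% in these data); inactive = the rest.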

The chains behind the UniProt entries cited, without tags or fusion partners.
UniProt P53041, whole entry: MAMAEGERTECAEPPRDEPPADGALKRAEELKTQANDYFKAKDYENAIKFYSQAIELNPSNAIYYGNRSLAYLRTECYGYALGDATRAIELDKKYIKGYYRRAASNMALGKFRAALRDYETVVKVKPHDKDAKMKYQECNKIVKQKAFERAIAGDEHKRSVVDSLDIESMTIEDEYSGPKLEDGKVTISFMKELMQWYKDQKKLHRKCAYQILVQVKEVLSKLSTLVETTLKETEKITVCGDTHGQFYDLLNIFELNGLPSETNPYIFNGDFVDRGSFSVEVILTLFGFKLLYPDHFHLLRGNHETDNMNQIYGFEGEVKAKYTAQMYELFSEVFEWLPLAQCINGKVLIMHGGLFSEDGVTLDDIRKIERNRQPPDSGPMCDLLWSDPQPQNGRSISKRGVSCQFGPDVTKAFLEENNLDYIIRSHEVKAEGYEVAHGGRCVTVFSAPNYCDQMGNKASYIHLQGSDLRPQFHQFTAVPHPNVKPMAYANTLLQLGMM

molecular target: Serine/threonine-protein phosphatase 5 (Homo sapiens) (UniProt P53041); assay: PP5 phosphatase inhibitors, primary screen, biochemical, fluorescence (AID 1987); conditions: purified PP5c, OMFP substrate fluorescence; at 6.7 µM; stronger effect = higher value;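 also: 0% = DMSO only and 100% = 100 µM cantharidin control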

Structure (SMILES)	inhibition
COP1(=S)c2c(C)nn(CCC#N)c2N=C(c2ccc(F)cc2)N1C (configuration not stated)	inactive: 3.28%
CCN(N=Nc1nonc1N)c1nonc1N	inactive: 1.74%
